Measurements as given in PubChem BioAssay AID1645853 (Buhrlage Lab, Dana-Farber Cancer Institute and Novartis …, 2021).
The entries are a selection whose mix differs from that of the whole data set. Calls of active or inactive are those of the source. Cut-off read from the data, not from the text of the source: active = inhibition above about 30%; inactive = the rest.

Chains of the proteins cited; added tags and fusions are not shown. Lines headed by an entry give the natural chain unless they say otherwise; changes in a name come on top.
UniProt P40818: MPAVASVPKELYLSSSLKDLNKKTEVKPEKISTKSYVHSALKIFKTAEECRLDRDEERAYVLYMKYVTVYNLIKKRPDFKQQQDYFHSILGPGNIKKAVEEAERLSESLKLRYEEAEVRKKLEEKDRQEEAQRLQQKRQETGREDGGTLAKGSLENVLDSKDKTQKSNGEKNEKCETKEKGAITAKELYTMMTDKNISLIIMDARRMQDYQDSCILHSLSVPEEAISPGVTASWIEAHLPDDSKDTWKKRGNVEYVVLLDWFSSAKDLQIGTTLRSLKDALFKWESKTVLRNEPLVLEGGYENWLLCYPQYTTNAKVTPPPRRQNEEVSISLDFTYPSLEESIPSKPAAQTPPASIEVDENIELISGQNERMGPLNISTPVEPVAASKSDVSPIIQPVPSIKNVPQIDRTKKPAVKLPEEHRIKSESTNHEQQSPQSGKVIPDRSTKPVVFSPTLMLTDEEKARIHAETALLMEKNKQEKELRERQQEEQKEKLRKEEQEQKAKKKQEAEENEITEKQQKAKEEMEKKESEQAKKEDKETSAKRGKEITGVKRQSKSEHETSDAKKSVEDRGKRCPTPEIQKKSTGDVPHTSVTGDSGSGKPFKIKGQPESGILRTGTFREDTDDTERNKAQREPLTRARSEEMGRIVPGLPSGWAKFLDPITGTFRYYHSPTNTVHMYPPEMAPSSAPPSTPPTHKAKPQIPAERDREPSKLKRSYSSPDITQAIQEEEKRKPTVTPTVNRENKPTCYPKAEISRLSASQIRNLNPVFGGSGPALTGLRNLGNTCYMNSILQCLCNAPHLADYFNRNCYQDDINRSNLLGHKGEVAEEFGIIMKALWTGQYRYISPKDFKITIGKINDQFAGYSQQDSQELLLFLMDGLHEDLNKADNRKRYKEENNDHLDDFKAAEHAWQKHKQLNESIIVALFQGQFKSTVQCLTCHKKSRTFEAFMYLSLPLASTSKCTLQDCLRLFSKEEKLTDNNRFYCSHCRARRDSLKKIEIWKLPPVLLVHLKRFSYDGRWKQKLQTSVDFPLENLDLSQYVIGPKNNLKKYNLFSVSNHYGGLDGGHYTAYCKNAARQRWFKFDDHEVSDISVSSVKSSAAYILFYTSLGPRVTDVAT

What follows are compounds tested against Ubiquitin carboxyl-terminal hydrolase 8 (Homo sapiens) (UniProt P40818) (assay: inhibitors of human USP8 deubiquitinase (AID 1645853)). Conditions: purified USP8, Ub-rhodamine cleavage fluorescence, 30 min; at 20 µM; active compounds read high.
For N#Cc1cccc(C(=O)N(Cc2cccnc2)C2CCN(CCc3ccccn3)CC2)c1, the inhibition was inactive: 0.77%. CS(=O)(=O)c1ccc(C(=O)N(Cc2ccco2)C2CCN(CCc3ccccn3)CC2)cc1 was tested, and the inhibition was inactive: -12.3%. CS(=O)(=O)c1ccc(C(=O)N(Cc2cccnc2)C2CCN(CCc3ccc(Cl)cc3)CC2)cc1 was tested, and the inhibition was inactive: -47.7%. In the case of COc1ccc(CCN2CCC(N(Cc3ccco3)C(=O)c3ccc(S(C)(=O)=O)cc3)CC2)cc1, the inhibition is reported as inactive: -8.79%. CN1C(=O)C2C(NC(=NCc3ccco3)N2CCc2ccccc2)N(C)C1=O (stereo unspecified) was tested, and the inhibition was inactive: -12.4%. For N#Cc1cccc(C(=O)N(Cc2ccco2)C2CCN(CCc3ccccn3)CC2)c1, the inhibition was inactive: -7.3%. With N#Cc1cccc(C(=O)N(Cc2ccco2)C2CCN(CCc3ccc(Cl)cc3)CC2)c1 the inhibition was inactive: -14.1%. In the case of Cc1[nH]c2c(N(C(=O)Nc3ccccc3)C3CCN(Cc4ccccc4)CC3)cccc2c1C, the inhibition is reported as inactive: -6.05%. For COc1ccc(CCN2CCC(N(Cc3cccnc3)C(=O)c3cccc(C#N)c3)CC2)cc1, the inhibition was inactive: -14.2%. For O=C(COC(=O)C(O)(c1ccccc1)c1ccccc1)NCc1ccc2c(c1)OCO2, the inhibition was inactive: -11.2%. With O=C(c1ccc2c(c1)OCO2)N(Cc1ccco1)C1CCN(CCc2ccccn2)CC1 the inhibition was inactive: -14.1%.
